# This is a sample that favours compounds with a hit; in the whole collection about 2.1% have one here.
# miR-122 sensor: miR-122 inhibition in Huh7 cells. AID 602342. activation (reporter increase), % at 12.5 µM. 340,000 compounds, 0.3% hits. Huh7 miR-122 Renilla luciferase sensor, 48 h; neutral wells = 0, positive control = 100;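 active means mean replicate activation score at least 90 and every replicate individually at or above 90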;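 further: higher luciferase means less miR-122 activity so hits act as miR-122 inhibitors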
# Yeast UUG start: modulators of start codon recognition fidelity in yeast; S. cerevisiae UUG-firefly luciferase reporter, luminescence/redox ratio; activity score, % at 18.7 µM; 0.13% of 350,000 active;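 active = replicate mean at a twofold rise or more, about +100% in these data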;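 also: firefly luciferase made from a UUG start codon reports start codon fidelity; reporter light over untreated wells divided by growth signal over untreated wells; some hits fall short of that in this replicate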
# PGC1a acetyl inh: PGC1a acetylation modulation, inhibitor mode; U2OS PGC1a acetylation, AlphaScreen anti-acetyl-lysine; with virally co-expressed GCN5 acetyltransferase; inhibition, % at 15.6 µM; 350,000 compounds, 0.17% hits; AID 651687;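 active means every replicate shows inhibition of at least 40%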;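 further: 0% = neutral control wells and 100% = positive control wells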
# MITF act: increases MITF-driven TRPM1 promoter luciferase signal | activation, % at 12.5 µM | 300,000 compounds, 0.75% hits | AID 588334 | SK-MEL-5 TRPM1-promoter luciferase, 24 h; % of positive control, neutral wells = 0;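 active means mean activation of at least 80% with every replicate also reaching 80%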;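 further: 0% = neutral control wells and 100% = parthenolide positive control wells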
# MITF TRPM1 inh: reduces MITF-dependent TRPM1 promoter luciferase signal; SK-MEL-5 TRPM1 promoter luciferase, 24 h; inhibition, % at 12.5 µM; 330,000 compounds, 0.83% hits; AID 488899;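 active means mean inhibition across replicates of 60% or more, whatever share of single replicates reaches that level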
# Wnt act: activators of Wnt/beta-catenin signaling. Wnt/beta-catenin reporter cell assay, activator, plate reader. activation, % at 9.35 µM. 300,000 compounds, 1.2% hits. AID 743398; in the data active means activation above about 30%, passing the limit was not always enough;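 further: 0% = neutral control wells and 100% = positive control wells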
# The depositor's hits bear a star; / = no result; [ ] = remark or other dose.
miR-122 sensor,Yeast UUG start,PGC1a acetyl inh,MITF act,MITF TRPM1 inh,Wnt act,Compound
/,-11.8,/,43.7,-52.5,32.3*,CCCCSc1nnc(-c2c[nH]c3ccccc23)n1C
/,-15.8,2.0,33.8,-26.9,53.5*,CCCCSc1nnc(-c2ccc(C)cc2)n1C
/,-10.1,/,/,/,22.8,Cn1c(SCc2ccccc2)nnc1-c1c[nH]c2ccccc12
/,-11.9,-2.0,/,/,/,O=C(C[C@@H]1CC[C@H](NS(=O)(=O)c2ccc(F)cc2)[C@@H](CO)O1)N1CCc2ccccc2C1
/,1.4,1.6,/,/,/,O=C(C1=C[C@@H](C2CC2)C[C@@H](OCCCCO)O1)N1CCCCCCC1
10.6[16.7 µM],2.3,20.4,/,/,/,C[C@@H]1CCCCO[C@H](CN(C)Cc2ccccc2)[C@@H](C)CN([C@H](C)CO)C(=O)c2cc(NC(=O)Nc3ccc4c(c3)OCO4)ccc2O1
-7.6,/,19.2,-0.4,-0.8,35.3*,Cc1cc(C)n(CC(=O)O)c(=O)c1[N+](=O)[O-]
-5.3[16.7 µM],-4.7,-1.3,/,/,/,C[C@@H]1CN([C@H](C)CO)C(=O)c2cccc(NS(=O)(=O)c3ccc(F)cc3)c2O[C@@H]1CN(C)S(C)(=O)=O
4.1,6.8,3.1,-2.9,3.5,49.9*,Cc1ccccc1NC(=O)C1CCCN1S(=O)(=O)c1ccccc1C(F)(F)F (stereo not given)
0.6,-3.8,-1.3,-13.9,15.3,/,Cc1ccccc1NC(=O)C1CCCN1S(=O)(=O)c1cccc2cccnc12 (stereo not given)
1.3[16.7 µM],11.0,1.0,/,/,/,C[C@@H]1CN([C@@H](C)CO)C(=O)c2cc(NC(=O)CCC(F)(F)F)ccc2O[C@H]1CN(C)C(=O)NC1CCCCC1
1.8,-15.3,-33.2,13.9,-14.9,7.0,c1cncc(C2Nc3ccccc3-c3nc4ccccc4n32)c1 (stereo not given)
1.4,-5.2,31.0,28.2,-23.5,56.2*,c1ccc2c(c1)NC(c1ccncc1)n1c-2nc2ccccc21 (stereo not given)
/,/,/,48.6,-45.9,18.6,Cc1ccsc1C1Nc2ccccc2-c2nc3ccccc3n21 (stereo not given)
/,/,/,36.4,-32.7,79.7*,c1csc(C2Nc3ccccc3-c3nc4ccccc4n32)c1 (stereo not given)
12.4[16.7 µM],0.8,-4.2,/,/,/,CCC(=O)N(C)C[C@@H]1Oc2cc(/C=C/c3ccccc3)ccc2S(=O)(=O)N([C@@H](C)CO)C[C@H]1C
/,/,5.7,/,/,/,CCC(=O)N1CC2(C1)[C@H](c1ccc(-c3ccccc3C)cc1)[C@H](CO)N2C(C)=O
-5.3,-43.9,/,/,/,22.4,COc1ccc(-c2c(C)nc3c(-c4ccccn4)cnn3c2N)cc1
-2.7,-17.0,3.0,94.1*,-85.4,28.7,COc1ccc(-c2c(C)nc3c(-c4ccsc4)cnn3c2N)cc1
0.2,5.9,5.4,82.3*,-79.7,14.5,C=CCn1cccc(C(=O)Nc2ccc(Cl)cc2)c1=O
/,-19.1,/,111.6*,-101.9,28.8,CCN(CC)c1ccc(Nc2nc(-c3cccnc3)cs2)cc1
/,/,13.0,87.9*,-93.7,43.0*,Cc1ccc(Nc2nc(-c3ccncc3)cs2)cc1
-9.7,-11.4,-4.0,-24.6,28.2,-11.5,Cn1c2ccccc2c(=O)c2cc(C#CC3(O)CCCCC3)ccc21
-3.7,-9.3,-1.4,-95.8,96.4*,-23.0,Cc1cc2sc3ccc(C#CC4(O)CCCCC4)cc3c(=O)c2cc1C

# Ordered by molar mass (falling): four of the compounds above.
miR-122 sensor,Yeast UUG start,PGC1a acetyl inh,MITF act,MITF TRPM1 inh,Wnt act,Compound
1.3[16.7 µM],11.0,1.0,/,/,/,C[C@@H]1CN([C@@H](C)CO)C(=O)c2cc(NC(=O)CCC(F)(F)F)ccc2O[C@H]1CN(C)C(=O)NC1CCCCC1
/,1.4,1.6,/,/,/,O=C(C1=C[C@@H](C2CC2)C[C@@H](OCCCCO)O1)N1CCCCCCC1
1.4,-5.2,31.0,28.2,-23.5,56.2*,c1ccc2c(c1)NC(c1ccncc1)n1c-2nc2ccccc21 (stereo not given)
0.2,5.9,5.4,82.3*,-79.7,14.5,C=CCn1cccc(C(=O)Nc2ccc(Cl)cc2)c1=O

# More structures follow.
miR-122 sensor,Yeast UUG start,PGC1a acetyl inh,MITF act,MITF TRPM1 inh,Wnt act,Compound
5.3,-51.8,9.7,-5.4,7.0,33.3*,Cc1nc2ccc(-c3nc4cc(N)ccc4o3)cc2[nH]1
-15.6,-27.3,-6.0,/,9.2,16.9,Nc1ccc2oc(-c3ccc4nc[nH]c4c3)nc2c1
-8.8[16.7 µM],7.9,2.7,/,/,/,C[C@@H]1CCCCO[C@H](CN(C)C(=O)C2CCCCC2)[C@@H](C)CN([C@@H](C)CO)C(=O)c2cc(NC(=O)CCCN(C)C)ccc2O1
3.6,-2.6,8.4,-17.8,-10.2,-2.5,O=S(=O)(Nc1cccc(F)c1)c1cccc2nsnc12
120.5*,7.8,5.9,-3.1,5.0,-0.2,O=S(=O)(Nc1ccc(Cl)cc1)c1cccc2nsnc12
114.1*,-15.1,-11.3,-2.6,1.2,-1.5,Cc1ccc(NS(=O)(=O)c2cccc3nsnc23)cc1C
14.3[16.7 µM],-25.0,-15.0,/,/,/,CN(C[C@H]1N[C@@H](CO)[C@H]1c1ccc(C2=CCCCC2)cc1)S(C)(=O)=O
-7.1[16.7 µM],/,-2.0,/,/,/,C[C@H](CO)N1C[C@H](C)[C@H](CN(C)CC2CC2)Oc2cc(C#Cc3cccnc3)ccc2S1(=O)=O

# Assay outcomes from PubChem.
